Results taken from US4764603A, “Stable salts of S-adenosyl-L-methionine with polyanions” (priority 1985, dated 1988).

Columns and labels:
[1] = From the text: The liquors are removed by simple decantation and the precipitate is washed twice with 10 l of distilled H2 O while keeping the system under strong stirring.
[2] = rat, in vivo, 10 mg/kg

polyphosphate
solubility in water at pH <4 / acid medium [1]: insoluble in acidic medium | absorption at the gastric level [2]: not absorbed | absorption of radioactivity relative to SAM sulfate [2]: superimposable to what is found for SAM sulfate | gastric residence time relative to SAM-sulfate [2]: shorter than SAM-sulfate | residence time at the gastric level [2]: less than 2 hours
